The values that follow come from ChEMBL document CHEMBL3588796, “Potency enhancement of the κ-opioid receptor antagonist probe ML140 through sulfonamide constraint utilizing a tetrahydroisoquinoline motif” (Bioorg Med Chem, 2015).

Chains of the proteins cited; added tags and fusions are not shown. Lines headed by an entry give the natural chain unless they say otherwise; changes in a name come on top.
UniProt P41145: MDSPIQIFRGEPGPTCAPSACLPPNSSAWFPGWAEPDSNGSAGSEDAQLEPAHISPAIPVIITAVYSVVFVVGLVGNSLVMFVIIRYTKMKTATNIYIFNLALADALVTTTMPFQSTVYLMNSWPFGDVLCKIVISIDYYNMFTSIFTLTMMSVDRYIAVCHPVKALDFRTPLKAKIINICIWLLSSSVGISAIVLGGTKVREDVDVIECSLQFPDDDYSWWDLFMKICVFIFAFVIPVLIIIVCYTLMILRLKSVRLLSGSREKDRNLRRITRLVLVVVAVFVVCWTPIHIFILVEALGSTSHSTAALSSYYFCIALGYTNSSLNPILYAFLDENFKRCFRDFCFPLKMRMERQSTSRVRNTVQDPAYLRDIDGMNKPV

Assay [1] addresses T1, Kappa-type opioid receptor (Homo sapiens, UniProt P41145). The experiment in a line: Antagonist activity against HA-tagged human recombinant kappa opioid receptor expressed in CHO cells assessed as inhibition of U69,593-induced ERK phosphorylation pre-incubated with compound before U69,593 stimulation for 10 mins relative to control. Details: concentration or dose not given beside the values. The class given is cell-based. The gist of the method: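 hKOR-CHO cells, 15,000 per well, plated overnight at 37 °C and serum-starved 1 h. Compound added, then 100 nM U69,593 for 10 min at 37 °C. Fixed cells stained overnight at 4 °C for phospho- and total ERK1/2. In-cell western read by infrared imaging at 700/800 nm. Three-parameter nonlinear fit; 2–4 replicates per experiment, n ≥ 3.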

Assay [2] addresses T1, Kappa-type opioid receptor. The experiment in a line: Antagonist activity against human kappa opioid receptor expressed in human U2OS cells co-expressing beta-arrestin2 pre-treated for 15 mins before U69,593 stimulation for 90 mins by DiscoveRx beta-arrestin2 recruitment based PathHunter assay relative to control. The class given is cell-based. Details: concentration or dose not given beside the values. Put shortly: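 U2OS-hKOR-βarrestin2 PathHunter cells, 5,000 per well, plated overnight in Opti-MEM with 1% FBS. Antagonist pretreatment 15 min at 37 °C, then 1 μM U69,593 for 90 min at 37 °C. Detection reagent 60 min at room temperature; chemiluminescence read-out. Concentration-response curves fitted by three-parameter regression; n ≥ 3 independent experiments.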
A general note: Arrestin recruitment assays detect the binding of arrestin to an activated receptor.

For orientation: inhibition means the share of the control response that was lost under treatment. Consider `Cc1ccc(S(=O)(=O)N(C)Cc2ccc(C(=O)N(C)CCN(Cc3ccccc3)C(C)C)cc2)cc1`, for which the inhibition in assay [1] and in assay [2] was > 86% throughout.
